The source of these data is patent US20230226152A1, “INTERLEUKIN-2 POLYPEPTIDE CONJUGATES AND METHODS OF USE THEREOF” (Ambrx, Inc., priority 2020, published 2023).

For the experiment, the system named is CTLL-2 cells. The experiment in a line: Clonal outgrowth and long-term propagation of CTLL-2 cells. The experiment is classed as cell-based. As to the method: To further analyze the biological function of glycosylated IL-2 and non-glycosylated IL-2, an experiment analyzing clonal outgrowth rate and long-term propagation frequency of CTLL-2 cells was performed (FIG. 13). Single CTLL-2 cells were deposited into 96-well plates with a precoated feeder layer of γ-irradiated CF1-MEF (Mouse Embryonic Fibroblast) cells (Thermo Fisher, Waltham, Mass., CAT #A34180). During 19 days of growth with a single treatment of various concentrations, (0.005 nM, 0.05 nM, 0.5 nM and 5 nM), of wild type IL-2 produced from CHO cells or E. coli, the percentage of the grown colony numbers and percentage of survived colonies at the end of 19-day incubation were counted and analyzed. […] On average, the ability of glycosylated IL-2 to promote the clonal outgrowth is 2-fold higher than non-glycosylated IL-2 in the presence of 0.5 nM IL-2 concentration, which is the optimal cell culture condition for CTLL-2 cells growth. After long-term incubation (˜19 days), the colony survival rate from the glycosylated IL-2 treatment was 4-fold higher than the non-glycosylated IL-2 treatment.

In the case of “glycosylated IL-2: wild type IL-2 produced from CHO cells, glycosylated”, the “ability to promote clonal outgrowth, higher than non-glycosylated IL-2” value (0.5 nM IL-2, single treatment) amounted to 2 fold. Further, under “after long-term incubation (~19 days)”, the “colony survival rate, higher than non-glycosylated IL-2 treatment” value amounted to 4 fold.
